Patent publication US20240239772A1, “PROTEASE INHIBITORS AND METHODS OF USE” (The Cleveland Clinic Foundation, priority 2021, published 2024)

Target: SARS-CoV-2 3CLpro (Severe acute respiratory syndrome coronavirus 2 (2019-nCoV) (SARS-CoV-2), UniProt P0DTD1)
Type: biochemical

In the case of `CC(C)CCN(C(=O)Cn1nnc2ccccc21)c1ccc(-c2cccnc2)cc1` [Compound 23, 2-(1H-Benzo[d][1,2,3]triazol-1-yl)-N-isopentyl-N-(4-(pyridin-3-yl)phenyl)acetamide], the IC50 is reported as 2510 ± 440 nM.
